## Apparent affinities of Ab-14 variants for a coronavirus HR2 peptide

All variants were tested on one target, the spike HR2 peptide PDVDLGDISGINAS (SARS-CoV-2).

Parent scFv Ab-14: VH joined to VL by three GGGGS repeats. Changes lie in the light chain CDRs alone.
VH: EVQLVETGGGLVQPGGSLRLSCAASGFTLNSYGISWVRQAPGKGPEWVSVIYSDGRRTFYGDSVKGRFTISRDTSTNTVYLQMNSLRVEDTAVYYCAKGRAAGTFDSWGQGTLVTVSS
VL: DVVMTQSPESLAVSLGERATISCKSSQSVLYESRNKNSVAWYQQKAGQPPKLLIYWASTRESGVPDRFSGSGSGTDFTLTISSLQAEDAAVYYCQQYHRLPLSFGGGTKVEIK

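These sequences belong to a second round, designed from the earlier measurements on random variants of the parent. Group labels follow the data file (En: ensemble of fine-tuned language models; GP: Gaussian process model; HC: hill climbing; Gen: genetic algorithm; Gibbs: Gibbs sampling; a sequence that several methods proposed may carry one label only). In AlphaSeq, yeast of one mating type display the scFv and yeast of the other type display the target. Pairs that bind mate more often; barcode pairs of the diploids are counted by sequencing. Each replicate has its own calibration line, from reference interactions of the BCL2 family. Mating was done six times.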

Each variant is given by its three light chain CDRs, as the data file delimits them; those of the parent are KSSQSVLYESRNKNSVA, WASTRES, QQYHRLPLS.
This list holds designs with more than six substitutions.
Affinities are written as log10 Kd with Kd in nM; a lower number is a better binder.
Averages over replicates are reported, and they cover detected replicates only.
Empty control strains, which show no peptide, gave a signal in 4% of pairings with all light chain designs; the median was 2.64 and 95% of these signals were weaker than 1.59. No background was subtracted. The control count says in how many pairings with the empty strains this scFv gave a signal.
The authors averaged sequences with at least three values out of six and counted those with two or fewer as poor binders.
A sequence measured in both rounds can read differently, since the two assays cover different ranges.
Of ten entries with the parent sequence, four were seen in most replicates (averages 0.34 to 2.37), three in one and three in none, so single entries are noisy.

CDR-L1,CDR-L2,CDR-L3,group,mean log10 Kd (nM),replicates with signal,signal with controls
HMSMLTLQGLRHRNAVA,QMTTREN,QQYDRLPLA,En_Gen,1.86,6/6,0/18
TLGDVTRMESNKKSSIA,DMSNRAQ,QQYHRLPIS,En_HC,0.27,6/6,2/18
KLGNQERMNGMANQNVA,AMNTRVD,QEYHRLPLI,En_Gibbs,0.40,6/6,0/18
NLQGMTAHETVKEKNIA,ERSTREQ,QQYNRLPLS,En_Gen,0.58,6/6,1/18
TITQSMLMTSHHMNSVA,HASTREE,QQYHRLPLI,En_HC,0.67,6/6,1/18
TISQMTSLFSQTINNVA,EVSTREE,QQYDRLPLM,En_Gen,0.43,6/6,1/18
QISGIQGHMSTIKNNVA,EMVTRAN,QQYDRLPLS,En_Gen,1.80,3/6,1/18
KMSESELYEDRNQNSVA,SASQRLE,QQYHRLPLS,GP_Gibbs,-0.01,6/6,0/18
KLSQSWEYESRNSNSVA,NASTRET,QQYHRLPLA,GP_Gibbs,0.21,6/6,0/18
KLSQDYCYGDRNKNSVA,NASTREQ,QQYHRLPLS,GP_Gibbs,0.85,6/6,1/18
MMSQVTGMGQRHRNNVA,QTSTREE,QQYDRLPLM,En_Gen,0.82,6/6,2/18
IISQVDDYLSRQTNSIA,DQTTRGS,QQYDRLPLS,En_HC,1.31,6/6,0/18
HISMMVGTKGYNKNAVA,NAETRED,QQYHRLPLS,En_HC,-0.27,6/6,0/18
KITATMRFEQKASNNIA,EVSMRTK,QQYYRLPLS,En_Gen,1.99,6/6,0/18
MISESVMYESRNRNSVA,DNSTRER,QCYDRLPLS,En_HC,1.57,6/6,2/18
HITYGMMVAGRHSKSIA,QAETRAK,QQYDRLPLS,En_Gen,1.91,6/6,2/18
MISQLYNMGQFAINSVA,QASLRNE,QQYDRLPLA,En_Gen,1.53,6/6,1/18
RITHNQLDYKNREANIA,HESMRLV,QQYSQLPLT,En_Gibbs,0.71,6/6,0/18
TISQMTSLFSQSINNVA,EVSTREP,QQYDRLPLM,En_Gen,1.49,6/6,2/18
KVSEFMRGLSRRKDSIA,DNNTRSN,QQYDRLPLS,En_Gen,0.43,6/6,0/18
KISQTIRVGSTHGNSIA,EEVTRAK,QQYHRLPLA,En_Gen,1.21,6/6,0/18
KIQHTHVGNEKKMENIA,QGDQRCQ,QSYDRLPLS,En_Gibbs,1.78,6/6,2/18
KLSEIAHFESRKKNSVA,ENSTREE,QQYDHLPLS,En_HC,1.20,6/6,0/18
KLRQSTVIESFNKNNVA,EMTNRES,QSYDRLPLS,En_HC,3.00,2/6,0/18
KFSGSHLYESRMENSVA,NASQRES,QQYHRLPLS,GP_Gibbs,-0.06,6/6,1/18
ILSQSVLMGMHTKNSVA,QATMRFN,QQYHHLPLM,En_HC,1.70,3/6,0/18
KIYQLGLGSQKIMRNIA,ETSTRCL,QSYNRLPLS,En_Gibbs,2.71,5/6,1/18
KLGSMVLLEHGNMNSIA,QQSTREE,QQYDRLPLS,En_HC,1.53,5/6,0/18
TISQSALMTGLNRNSVA,QASERIE,QQYHRLPLS,En_HC,-0.12,6/6,2/18
QLSQVTGHMQVEKNNVA,EMDTREN,QQYDRLPLS,En_Gen,1.66,6/6,2/18
KLDQSVDEKSRNKNSVA,EASTRES,QDYHRLPLS,GP_Gibbs,-0.01,6/6,0/18
MISNEQDYNYSATNSVA,DVTERCN,QQYKRLPLT,En_Gibbs,0.87,6/6,0/18
KIGMTLNTLMHQKNNVA,DLVTRED,QQYHRLPLS,En_Gen,0.60,6/6,1/18
MISQLYNMGSFAINSVA,QASQRNA,QQYDRLPLI,En_Gen,1.49,6/6,3/18
KLYSVTGTEKVLGNNVA,EMETRER,QQYNRLPLS,En_Gen,0.18,6/6,0/18
KIGMTLNTLLHQKNNVA,DLVEREN,QQYFRLPLS,En_Gen,0.03,6/6,0/18
IISGVMLMESRHKNSVA,NAETREY,QHYDRLPLS,En_HC,1.79,2/6,0/18
KLSQYVGYESRNKSRVA,DNSTRES,QQYDRLPLS,En_HC,2.48,6/6,0/18
KIGHQMVGNWKTDNNIA,QGDTRGS,QSYDRLPLS,En_Gibbs,1.40,5/6,0/18
TLGDVTRMESNKKNSIA,DMSNRAI,QQYHRLPIS,En_HC,0.34,6/6,0/18
KLQYSNLYGSRNLNSVA,NASTRLQ,QQYHRLPLS,GP_Gibbs,-0.01,6/6,3/18
KVWMSQLYESRNKNSVA,NASLRMS,QQYHRLPLS,GP_Gibbs,0.09,6/6,2/18
KLSMSMLMESRHTNSVA,ENSTRES,QHYHRLPLS,En_HC,2.34,5/6,0/18
TISMSMNWLTFNKDNIA,EESTRED,QQYDRLPLS,En_HC,2.51,5/6,0/18
QLTWNDRGHQAKGGSIA,DATETME,QQYMHLPLY,En_Gibbs,0.18,6/6,0/18
KLPGSNLYESRNLNSVA,KASTRLQ,QQYHRLPLS,GP_Gibbs,0.20,6/6,0/18
KLGQMTASESRNLNSVA,QMDTRES,QQYHRLPLS,En_HC,0.15,6/6,1/18
NLGGEDANDTRGMMAVA,DVSTVGE,QHYNRLPLS,En_Gibbs,2.42,1/6,2/18
ALREVFYQEQVEHSAIA,DGEHLNN,QQYSMLPLS,En_Gibbs,0.81,6/6,0/18
KLYQSVGTMMHNKQSIA,DMERRMD,QQYHRLPLS,En_HC,-0.33,6/6,0/18
ALSGSMDMTSRNVNSVA,DLTTRGN,QQYHRLPLS,En_HC,-0.06,6/6,1/18
TISQLMNMGQFAINSVA,QASIRNM,QQYDRLPLI,En_Gen,1.83,6/6,1/18
KLMCSMEYESRNKNSVA,NASTREM,QQYHRLPLS,GP_Gibbs,0.64,6/6,0/18
FLSQSVLYESREDNSVA,NASQRCE,QQYHRLPLS,GP_Gibbs,0.64,6/6,1/18
DVHALMNHSEDLMQNIA,DESCRDA,QQYERLPLS,En_Gibbs,1.70,6/6,1/18
MVSQLMLWGLHAKNSIA,EAVTRCN,QQYDRLPLF,En_Gen,1.51,3/6,0/18
MMTMFPNEPTGDSNNIA,DTNQLNT,QQYQRLPLM,En_Gibbs,0.33,6/6,1/18
KLQQSVLMGSRNKNSVA,EASTRLV,QAYHRLPLS,GP_Gibbs,0.44,6/6,1/18

Extract of 9 entries:

| CDR-L1 | CDR-L2 | CDR-L3 | group | mean log10 Kd (nM) | replicates with signal | signal with controls |
|---|---|---|---|---|---|---|
| KLSQYVGYESRNKSRVA | DNSTRES | QQYDRLPLS | En_HC | 2.48 | 6/6 | 0/18 |
| ALSGSMDMTSRNVNSVA | DLTTRGN | QQYHRLPLS | En_HC | -0.06 | 6/6 | 1/18 |
| TISQLMNMGQFAINSVA | QASIRNM | QQYDRLPLI | En_Gen | 1.83 | 6/6 | 1/18 |
| KLQQSVLMGSRNKNSVA | EASTRLV | QAYHRLPLS | GP_Gibbs | 0.44 | 6/6 | 1/18 |
| KLGNQERMNGMANQNVA | AMNTRVD | QEYHRLPLI | En_Gibbs | 0.40 | 6/6 | 0/18 |
| TITQSMLMTSHHMNSVA | HASTREE | QQYHRLPLI | En_HC | 0.67 | 6/6 | 1/18 |
| RITHNQLDYKNREANIA | HESMRLV | QQYSQLPLT | En_Gibbs | 0.71 | 6/6 | 0/18 |
| MISQLYNMGSFAINSVA | QASQRNA | QQYDRLPLI | En_Gen | 1.49 | 6/6 | 3/18 |
| KITATMRFEQKASNNIA | EVSMRTK | QQYYRLPLS | En_Gen | 1.99 | 6/6 | 0/18 |

Values reported by Li et al. 2023, doi:10.1038/s41467-023-39022-2 (FLAb copy).